US20210000842A1, “TETRACYCLINE MANAGEMENT OF EGFR INHIBITOR ASSOCIATED DERMATOSES” (Foamix Pharmaceuticals Ltd., priority 2015, published 2021)

Legend:
Assay type in all cases: physicochemical
[1] = Doxycycline Hyclate compatibility test; settings: summary; tested after the storage for up to 3 weeks
[2] = Compatibility study of minocycline hydrochloride with excipients (visual inspection); settings: for Compatibility with Minocycline HCl: summary, tested after the storage for up to 3 weeks
[3] = Doxycycline Monohydrate compatibility test
Procedure: Active agent is incubated with various excipients individually at one or more temperatures and at different ratios of active agent to a single excipient for a certain fixed period or to the point where degradation was suspected. The period can be for example 3 or 7 or 14 or 21 or 28 days or longer. Visual inspection is a criterion for indication of compatibility. Any change of color indicates oxidation or degradation. […] Tests are also carried out with combinations of excipients.
A similar compatibility study was conducted for Doxycycline Hyclate and Doxycycline Monohydrate.
Different compositions of hydrophilic and hydrophobic solvents containing Doxycycline Hyclate (Set I and Set II) and Doxycycline Monohydrate (Set III) were prepared by weighing the antibiotic in a glass vial and shaking overnight with each solvent investigated.
A similar compatibility test was performed on another form of Doxycycline—Doxycycline Monohydrate.

[4] = summary, tested after the storage for up to 3 weeks

Substance	Compatibility with Doxycycline Hyclate [1]	Compatibility with MCH: oily emollients and waxes ([2]; MCH:excipient 1:250 for oily emollients and 1:50 for waxes, 25° C. and 40° C., max sixty days, visual inspection)	Compatibility with Minocycline HCl [2]	Compatibility with Doxycycline Monohydrate [3, 4]	Compatibility with MCH: hydrophilic solvents ([2]; MCH: excipient 1:250, suspension at 25° C. and 40° C. for maximum of sixty days, visual inspection)	Visual inspection after the storage at 50° C. ([3]; mixture of 1.04% w/w Doxycycline Monohydrate with the ingredient, stored two weeks)	Compatibility with Doxycycline Monohydrate ([3]; mixtures of 1.04% w/w, excipient named as label, storage at 25° C., 40° C. and 50° C. for two weeks)
Cetearyl octanoate	Yes	compatible	Yes	Yes			
Hexylene Glycol			No	No	incompatible	Black solution.	oxidized
